Records with an inconclusive call do not appear.
Test system: U2OS PGC1a acetylation AlphaLISA, overnight
Test: PGC1a acetylation increase, cellular AlphaLISA – cell-based, cherry-picked samples, set 6, dose response (AID 720513);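 note: cells made to overexpress flag tagged PGC1a plus GCN5 acetyltransferase by viral infection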

SMILES: O=c1[nH]c2ccccc2n1C1CCN(C(c2ccccc2OC(F)(F)F)c2nnnn2C2CCCC2)CC1 (stereo unspecified)
- AC40: 2.67 µM

Source: PubChem BioAssay AID720513 (Broad Institute, 2013)
